The entries are a selection whose mix differs from that of the whole data set. Some tests of the compounds listed are not included; inactive here does not mean inactive elsewhere. Results filed as inconclusive are left out. Activity calls are given as the source filed them. Calls follow the shape of the dose curve; as a rule, active = well fitted inhibition curve with a large enough effect; inconclusive = small, poorly fitted or top-dose-only effect; inactive = flat fitted curve, though single readings scatter.
Target: Serine/threonine-protein kinase PLK1 (Homo sapiens) (UniProt P53350)
Experiment: qHTS for Inhibitors of PLK1-PDB (polo-like kinase 1 - polo-box domain): Primary Screen; also: nearly all actives have a fitted effect of over 65% in size; as to max response, negative = inhibition: series mostly up to about 57 µM
Conditions: Plk1 PBD binding of FITC phosphopeptide, fluorescence polarization
% is scaled to controls: 0 for no effect and ±100 for the full control effect; potency is read from the fitted curve at half-maximal effect.

The chains behind the UniProt entries cited, without tags or fusion partners.
UniProt P53350, whole entry: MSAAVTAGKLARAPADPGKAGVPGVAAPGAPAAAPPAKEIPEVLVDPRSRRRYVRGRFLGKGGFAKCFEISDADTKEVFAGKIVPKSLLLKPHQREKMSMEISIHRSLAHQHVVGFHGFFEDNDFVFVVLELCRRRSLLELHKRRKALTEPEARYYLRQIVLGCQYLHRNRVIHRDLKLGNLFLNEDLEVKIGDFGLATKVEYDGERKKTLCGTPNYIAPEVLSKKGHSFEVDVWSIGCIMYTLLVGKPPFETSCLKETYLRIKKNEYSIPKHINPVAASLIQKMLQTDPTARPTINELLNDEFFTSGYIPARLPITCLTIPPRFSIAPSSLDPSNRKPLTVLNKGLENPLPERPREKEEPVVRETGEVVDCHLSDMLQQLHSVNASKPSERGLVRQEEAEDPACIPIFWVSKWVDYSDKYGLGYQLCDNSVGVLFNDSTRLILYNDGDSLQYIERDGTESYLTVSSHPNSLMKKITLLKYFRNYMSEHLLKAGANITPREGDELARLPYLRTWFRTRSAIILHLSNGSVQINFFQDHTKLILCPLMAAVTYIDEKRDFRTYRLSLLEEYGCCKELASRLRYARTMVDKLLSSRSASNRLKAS

Structure (SMILES)	max response, negative = inhibition	Potency
COc1ccc(Br)c(C(=O)NCC2(N3CCCCC3)CCCCC2)c1	inactive: -4.04%	
C=C(C)C#CC(O)(C(=O)OC1CCN(C)CC1)c1ccccc1 (stereo unspecified)	inactive: -7.56%	
CN(C)c1cccc(C(=O)NCC2(N(C)C)CCCCC2)c1	inactive: -3.17%	
CC(C)Oc1ccc(C(=O)NCC2(N(C)C)CCCCC2)cc1	inactive: -1.06%	
O=C(OCCN1CCCC1)C(O)(c1ccccc1)c1ccccc1	inactive: 0.269%	
O=C(OC1CN2CCC1CC2)C(CO)(c1ccccc1)c1ccccc1 (stereo unspecified)	inactive: -1.09%	
COc1cccc(C(=O)NCC2(N3CCCCC3)CCCCC2)c1	inactive: -8.91%	
COc1ccc(Cl)cc1C(=O)NCC1(N(C)C)CCCCC1	inactive: 0.929%	
O=C(NCC1(N2CCCCC2)CCCCC1)c1cccc(Cl)c1	inactive: -5.82%	
CN(C)C1(CNC(=O)c2ccc(Br)cc2)CCCCC1	inactive: -5.25%	
COc1cc(C(=O)NCC2(N(C)C)CCCCC2)c([N+](=O)[O-])cc1OC	inactive: -12.4%	
C=CCN1CCN(CCOC(=O)C(O)(c2ccccc2)c2ccccc2)CC1	inactive: 3.13%	
O=C(NCC1(N2CCCCC2)CCCCC1)c1cc(F)c(F)cc1Cl	inactive: -5.93%	
Cc1cc(C(=O)NCC2(N3CCCCC3)CCCCC2)ccc1[N+](=O)[O-]	inactive: -12.8%	
CCN1CCCC(OC(=O)C2(O)c3ccccc3C=Cc3ccccc32)C1 (stereo unspecified)	inactive: -13.3%	
O=C(NCC1(N2CCCCC2)CCCCC1)c1cccc(Br)c1	inactive: 0.334%	
COc1ccc(C(=O)NCC2(N(C)C)CCCCC2)cc1	inactive: 1.4%	
Cc1ccccc1C(=O)NCC1(N2CCCCC2)CCCCC1	inactive: -5.93%	
CN(C)C1CCCC1OC(=O)C(O)(c1ccccc1)c1ccccc1 (stereo unspecified)		active: 23.8 µM
CN(C)c1ccc(C(=O)NCC2(N(C)C)CCCCC2)cc1	inactive: 0.939%	
CC(C)N1C(=O)CC2(CCN(CCOC(=O)C(O)(c3ccccc3)c3ccccc3)CC2)C1=O	inactive: -3.86%	
CCN(CC)CC(C)C(C)OC(=O)C(O)(c1ccccc1)c1ccccc1 (stereo unspecified)	inactive: -13.6%	
COc1cc(SC)ccc1C(=O)NCC1(N(C)C)CCCCC1	inactive: -1.27%	
Cc1ccc(C(=O)NCC2(N3CCCCC3)CCCCC2)cc1	inactive: -9.39%	
O=C(NCC1(N2CCCCC2)CCCCC1)c1cc([N+](=O)[O-])ccc1Cl	inactive: -2.27%	
CN1[C@@H]2CC[C@H]1CC(OC(=O)C(O)(c1ccccc1)c1ccccc1)C2 (stereo partly specified)	inactive: -3.84%	

From PubChem BioAssay AID720504 (National Center for Advancing Translational Sciences (NCATS), 2013)
